Earlier results, collected in patent EP0632082B1, “Preparation of activated carbamates of poly(alkylene glycol) and their use” ("HEYLECINA", Société Anonyme, priority 1993, dated 1995).

Assays:
[1] = in vivo
[2] = i.v. administered, compared with rIL-2
[3] = aqueous solutions at physiological pH

## PEG-rIL-2: rIL-2 with chemical grafting of 2 to 3 poly(ethylene glycol) (PEG) chains (7 kDa each)
[1]
  immunogenicity: reduced immunogenicity
[2]
  antitumoral activity: significantly higher antitumoral activity than rIL-2
[3]
  solubility: enhanced solubility
